How the values were obtained:
[1] = Binding to bone cryosections (FITC anti-human IgG / xylenol orange); design: species or system C57BL/6 mice; conditions: 50 μg/mL, overnight incubation; xylenol orange (XO) labels bone
Experimental: Binding to bone cryosections. […] After washing 3 times with PBS, specimens were incubated for 30 min at 37° C. with Xylenol Orange (XO) (stock: 2 mg/ml, dilute 1:500, dilute buffer: PBS pH 6.5). After three washes with PBS, specimens were stained with Hoechst 33342 (stock 10 mg/ml, dilute 1:2000) for 10 min. Slides were then washed with PBS, air dried, and sealed with PROLONG™ gold anti-fade mountant (from ThermoFisher).

[2] = test system: SK-BR-3 (HER2+++) cells; assay: Cell-surface binding to SK-BR-3 cells (flow cytometry)
Experimental: (§1) Flow cytometry. […] After washing away unbound antibodies, bound antibodies were detected using Fluorescein (FITC) AffiniPure Goat Anti-Human IgG (H+L) (code: 109-095-003, Jackson Immunology) for 30 min at 4° C. Fluorescence intensity was determined using a BD FACSVerse (BD Biosciences).

[3] = test system: MDA-MB-468 (HER2−) cells; assay: Cell-surface binding to MDA-MB-468 cells (flow cytometry)
Experimental: as §1

[4] = test system: SK-BR-3 cells; assay: In vitro cytotoxicity (MTT) against SK-BR-3; assay type: cell-based
Experimental: (§2) BT474, and MDA-MB-468 cells at 2×10^3 cells/well into 96-well plates. […] 20 AL of 3-(4,5-dimethylthiazol-2-yl)-2,5-diphenyltetrazolium bromide (MTT) solution (5 mg/mL) was then added to each well and incubated for another 4 h. Medium was aspirated and 150 AL DMSO was added to each well. The absorbance at 565 nm was measured by microplate reader (Infinite M Plex by Tecan) to quantify living cells.

[5] = test system: HER2-negative MDA-MB-468 cells; assay: In vitro cytotoxicity (MTT) against MDA-MB-468; assay type: cell-based; conditions: same experimental conditions as SK-BR-3
Experimental: as §2

[6] = test system: MDA-MB-361 breast cancer cells; assay: MDA-MB-361 bone metastasis xenograft model (para-tibial injection)
[7] = HA binding assay; conditions: antibodies 1 mg/ml, 20 mg/ml hydroxyapatite, 37° C., 9 h; mean ± SEM
[8] = ADC, in vitro binding assay, FIG. 50

Substance	FITC signal on non-decalcified bone sections [1]	binding to HER2-positive SK-BR-3 cells [2, 8]	binding to HER2-negative MDA-MB-468 cells [3, 8]	EC50 [4] [nM]	cytotoxicity against MDA-MB-468 cells [5]	metastatic growth in bone vs unmodified Tras-MMAE ([6]; ADC 0.5 mg/kg every week for two months)	bone volume/tissue volume ratio (BV/TV) vs PBS- and Tras-MMAE-treated groups ([6]; ADC 0.5 mg/kg weekly)	micro-CT: osteolytic bone destructions ([6]; ADC 0.5 mg/kg weekly)	trabecular bone thickness (Tb.Th) vs PBS- and Tras-MMAE-treated groups ([6]; ADC 0.5 mg/kg weekly)	toxicity, body weight during treatment ([6]; ADC 0.5 mg/kg weekly, FIG. 37I)	histology: intratibia tumor burden ([6]; ADC 0.5 mg/kg weekly, FIG. 55)	secondary metastases derived from bone lesions ([6]; ADC 0.5 mg/kg weekly, FIGS. 37K, 56)	anti-tumor activity ([6]; FIG. 35)	Percentage of the bound fraction [7] [%]	MFI increase (fold) ([2]; SK-BR-3, Her2 expression 3+, over PBS control)	MFI increase (fold) ([3]; MDA-MB-468, Her2 expression 0, over PBS control)
Tras-CH1/CT-MMAE	correlated well with the XO signal	high binding affinity	but not	0.49 ± 0.3	no significant toxicity	significant inhibition of metastatic growth in bone	higher	but not	thicker	no apparent toxicity	reduction of intratibia tumor burden	significantly reduced the frequency and size of secondary metastases	better anti-tumor activity	–	–	–
Tras-LC/CT: trastuzumab with two L-Asp6 peptides, light chain and C-terminus; SEQ ID NOs: 11-12	–	–	–	–	–	–	–	–	–	–	–	–	–	59.7 ± 4.4	57.75	1.16
Tras-MMAE [reference compound]	–	–	–	0.18	no significant toxicity	–	–	extensive osteolytic bone destructions	–	–	–	–	–	–	–	–

Reference: patent US20250084183A1, “ENGINEERED COMPOSITIONS FOR BONE-TARGETED THERAPY” (William Marsh Rice University, priority 2021, published 2025)
